Test results from patent US20200399318A1, “PEPTIDE INHIBITORS OF PHOSPHOGLYCERATE MUTASE AND METHODS OF USE” (priority 2016, published 2020).

By UniProt entry, the sequences of proteins in these tests, tags left out.
UniProt G5EFZ1, whole entry, looked up: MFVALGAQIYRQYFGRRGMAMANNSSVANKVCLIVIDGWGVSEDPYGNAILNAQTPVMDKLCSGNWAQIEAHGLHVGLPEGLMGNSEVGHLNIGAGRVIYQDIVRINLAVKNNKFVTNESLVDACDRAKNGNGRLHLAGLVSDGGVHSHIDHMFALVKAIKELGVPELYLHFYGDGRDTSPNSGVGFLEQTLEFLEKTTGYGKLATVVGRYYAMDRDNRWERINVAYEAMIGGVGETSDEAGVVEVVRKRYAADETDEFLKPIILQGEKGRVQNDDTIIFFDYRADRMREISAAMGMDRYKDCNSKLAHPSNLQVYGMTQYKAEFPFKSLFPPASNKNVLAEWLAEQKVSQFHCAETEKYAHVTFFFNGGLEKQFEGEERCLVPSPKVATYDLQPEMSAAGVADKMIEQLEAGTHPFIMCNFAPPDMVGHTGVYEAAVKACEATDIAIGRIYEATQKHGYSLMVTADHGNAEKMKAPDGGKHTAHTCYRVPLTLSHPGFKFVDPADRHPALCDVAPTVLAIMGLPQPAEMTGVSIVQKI

Molecular target: C. elegans iPGM (Caenorhabditis elegans, UniProt G5EFZ1)
Experiment: PGM coupled-enzyme bioluminescent end-point assay (Kinase-Glo Plus), 1536-well
Settings: 5 nM C. elegans iPGM, 0.4 mM 3PG; ± s.d. or s.e. of fit; NA = no appreciable inhibition

## CC(C)C[C@@H]1NC(=O)[C@@H](Cc2ccc(O)cc2)NC(=O)CSC[C@@H](C(=O)N[C@@H](CC(N)=O)C(=O)N[C@H](C(=O)N[C@@H](CS)C(N)=O)[C@@H](C)O)NC(=O)[C@H](CC(N)=O)NC(=O)[C@@H]2CCCN2C(=O)[C@H](Cc2c[nH]c3ccccc23)NC(=O)[C@H](CCC(=O)O)NC1=O
  C. elegans iPGM PIC50, M: 5.61 ± 0.23 M
